For assay [1], the target named is PPAR delta/gamma (Homo sapiens) (UniProt P37231+Q03181). The experiment in a line: Selectivity index, ratio of EC50 of PPARgamma (unknown origin) to EC50 of PPARdelta (unknown origin). The format is protein assay.
Assay [2] deals with T1, Peroxisome proliferator-activated receptor alpha (Homo sapiens) (UniProt Q07869).
T1 sequence (whole entry): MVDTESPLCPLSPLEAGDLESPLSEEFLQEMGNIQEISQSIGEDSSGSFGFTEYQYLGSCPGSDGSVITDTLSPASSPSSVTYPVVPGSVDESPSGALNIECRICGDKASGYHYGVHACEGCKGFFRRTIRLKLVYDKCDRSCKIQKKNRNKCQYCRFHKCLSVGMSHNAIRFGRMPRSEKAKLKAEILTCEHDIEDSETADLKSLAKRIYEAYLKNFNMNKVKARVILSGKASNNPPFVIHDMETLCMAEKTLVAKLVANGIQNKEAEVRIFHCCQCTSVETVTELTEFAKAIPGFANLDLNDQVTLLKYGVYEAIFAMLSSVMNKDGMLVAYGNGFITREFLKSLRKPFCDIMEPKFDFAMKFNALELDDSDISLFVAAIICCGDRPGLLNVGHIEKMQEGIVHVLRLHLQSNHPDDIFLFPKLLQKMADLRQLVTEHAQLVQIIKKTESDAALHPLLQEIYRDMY
The experiment in a line: Potency index, ratio of EC50 of GFT505 to ratio of EC50 of compound for agonist activity at PPARalpha (unknown origin) incubated for 3 to 16 hrs by pathhunter nuclear hormone receptor assay.

By UniProt entry, the sequences of proteins in these tests, tags left out. Where a name states a change or a piece, a line headed by the entry shows the natural chain unless it says otherwise.
UniProt P37231: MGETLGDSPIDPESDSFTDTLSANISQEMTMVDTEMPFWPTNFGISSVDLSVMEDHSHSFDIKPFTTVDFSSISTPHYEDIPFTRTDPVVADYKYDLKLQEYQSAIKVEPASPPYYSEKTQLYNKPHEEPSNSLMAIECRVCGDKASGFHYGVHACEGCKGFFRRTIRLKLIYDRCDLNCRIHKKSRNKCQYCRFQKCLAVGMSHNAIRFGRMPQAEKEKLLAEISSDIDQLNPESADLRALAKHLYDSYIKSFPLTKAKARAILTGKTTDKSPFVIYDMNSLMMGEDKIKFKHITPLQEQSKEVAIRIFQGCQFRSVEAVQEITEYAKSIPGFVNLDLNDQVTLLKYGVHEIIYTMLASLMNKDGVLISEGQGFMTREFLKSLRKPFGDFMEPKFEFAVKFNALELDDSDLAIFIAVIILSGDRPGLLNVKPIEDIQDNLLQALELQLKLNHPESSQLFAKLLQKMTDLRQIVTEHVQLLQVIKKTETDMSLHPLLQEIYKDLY
UniProt Q03181: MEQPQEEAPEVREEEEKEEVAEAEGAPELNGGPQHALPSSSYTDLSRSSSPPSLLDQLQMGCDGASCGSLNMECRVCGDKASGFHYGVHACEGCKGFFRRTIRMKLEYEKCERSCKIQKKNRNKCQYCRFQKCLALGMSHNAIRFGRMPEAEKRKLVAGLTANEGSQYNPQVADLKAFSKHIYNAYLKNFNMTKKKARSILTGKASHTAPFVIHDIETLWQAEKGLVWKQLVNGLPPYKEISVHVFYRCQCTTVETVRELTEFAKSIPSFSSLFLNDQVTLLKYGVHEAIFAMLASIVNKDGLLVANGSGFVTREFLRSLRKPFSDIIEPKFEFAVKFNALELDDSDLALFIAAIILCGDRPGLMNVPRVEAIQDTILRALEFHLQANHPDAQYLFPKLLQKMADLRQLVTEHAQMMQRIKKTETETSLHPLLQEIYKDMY

The next assay is filed under the species Homo sapiens. The experiment in a line: Selectivity index, ratio of EC50 of PPARgamma (unknown origin) to EC50 of PPARalpha (unknown origin).

In the case of `Cc1cc(Cc2cc(-c3ccc(Br)cc3)on2)cc(C)c1OC(C)(C)C(=O)O`, the figures for the Ratio EC50 (in assay [1]; in assay [2]; in the assay listed under Homo sapiens) were 588, 8 to 28 and 367, respectively.

The values are drawn from ChEMBL document CHEMBL4304783, “Discovery of a Novel Selective Dual Peroxisome Proliferator-Activated Receptor α/δ Agonist for the Treatment of Primary Biliary Cirrhosis” (ACS Med Chem Lett, 2019).
